High-throughput results: PubChem, Broad Institute
Sampled rows, rich in hits. Any-hit rate of the full collection: about 1.3%.
EWS-Fli inh: EWS/Fli-driven NR0B1 reporter inhibitors, primary screen, A673 cells, NR0B1 luciferase, luminescence, MLPCN library | 350,000 compounds, 0.67% hits | inhibition, % at 12.6 µM | viability-normalised;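 active = mean inhibition of at least 50% after viability correction, with every replicate also passing that limit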;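 note: firefly luciferase signal divided by Alamar Blue viability fluorescence both relative to DMSO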
PglD DTNB: C. jejuni PglD acetyltransferase inhibitors, primary screen, biochemical, DTNB colorimetric, single point; UDP-N-acetylbacillosamine N-acetyltransferase PglD (Campylobacter jejuni); purified PglD enzyme, DTNB colorimetric CoA detection; inhibition, % at 12.5 µM; 360,000 compounds, 0.098% hits; in the data active = inhibition above about 16%, passing the limit was not always enough
Yeast UUG start: alters start codon recognition fidelity in yeast. S. cerevisiae UUG-firefly luciferase reporter, luminescence/redox ratio. activity score, % at 18.7 µM. 0.13% of 350,000 active. AID 602363;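 active = replicate mean at a twofold rise or more, about +100% in these data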;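 also: firefly luciferase made from a UUG start codon reports start codon fidelity; reporter light over untreated wells divided by growth signal over untreated wells; some hits fall short of that in this replicate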
LGR2 antag: inhibitors of bursicon-induced LGR2 CRE-luciferase signal, primary screen, cell-based, HEK293, CRE-luciferase reporter, bursicon stimulation | bursicon-stimulated, 4 h | inhibition, % at 9.99 µM | 380,000 compounds, 0.35% hits;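 active = drop in luminescence signal, shown as inhibition above about 50% in the replicate tests, limit read from the data, passing the limit was not always enough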;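 note: agonist challenge used bursicon conditioned medium at about half maximal strength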
miR122 inh: miR-122 Renilla sensor signal increase in Huh7, primary screen, miR-122 inhibitor project, cell-based, single point, plate reader. Huh7 miR-122 Renilla luciferase sensor, 48 h; neutral wells = 0, positive control = 100. activation (reporter increase), % at 12.5 µM. 340,000 compounds, 0.3% hits. AID 602342, 2012;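 active = mean replicate activation score at least 90 and every replicate individually at or above 90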;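 note: higher luciferase means less miR-122 activity so hits act as miR-122 inhibitors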
CFTR F508del cor: F508del CFTR correction, initial screen, CFBE line, single point; CFBE cells, YFP halide quenching; stimulated with forskolin plus potentiator P3; % fluorescence drop versus neutral controls; activity (quench increase), % at 7.58 µM; 350,000 compounds, 0.36% hits; AID 720511, 2013;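 active = mean added fluorescence quench of at least 8% versus neutral control, with both replicates also reaching 8%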;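 note: cells transiently co-express mutant CFTR-F508del with the halide-sensitive YFP; corrector assay measuring rescue of mutant channel to the surface after 24 h compound exposure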
Numbers without * were called inactive; . = not tested or not shown; [ ] = remark or other dose.

no.	canonical_smiles	EWS-Fli inh	PglD DTNB	Yeast UUG start	LGR2 antag	miR122 inh	CFTR F508del cor
1	CCOc1ccc(CCNC(=O)CCNS(=O)(=O)c2ccc3c(c2)CCN3C(C)=O)cc1OCC	4	4	-8	-17	-3	-4
2	CCOC(=O)c1c(C)[nH]c(C(=O)OCC(=O)Nc2ccc(Cl)cn2)c1C	-2	-3	-6	5	4	3
3	CCOC(=O)c1c(C)[nH]c(C(=O)OCC(=O)Nc2sccc2C(N)=O)c1C	-30	.	.	71*	-5	3
4	C[C@H](CO)N1C[C@H](C)[C@@H](CN(C)C(=O)Nc2ccccc2)Oc2c(NC(=O)Nc3ccc4c(c3)OCO4)cccc2C1=O	-18	1	-18	10	13	1
5	COc1ccc([C@H]2C[C@H](n3cc(-c4ccc(F)cc4)nn3)[C@@H](O)CN2Cc2cccs2)cc1	2	1	-1	13	-1	-1
6	COc1ccc([C@H]2C[C@H](O)[C@@H](n3cc(-c4ccc(F)cc4)nn3)CN2Cc2cccs2)cc1	56*	2	0	17	3	8.1*
7	O=C(N/N=C/c1c(O)ccc2ccccc12)C(=O)N1CCCC1	6	-1	-8	18	-2	13*
8	O=C(CN1CCCC1)N/N=C/c1c(O)ccc2ccccc12	17	0	-29	18	4	10.0*
9	Oc1ccc2ccccc2c1C=NNc1ccccn1	-24	.	.	-1	.	9.7*
10	O=C(Nc1ccccc1)N[C@@H]1CC[C@H](CCNC(=O)c2ccccc2F)O[C@H]1CO	-2	2	-3	-12	.	0
11	FC(F)Oc1ccc(NC(=S)NC2CCSc3ccccc32)cc1 (configuration not stated)	.	-8	-15	4	.	-1
12	CCOc1ccc(S(=O)(=O)NCc2ccccn2)cc1NC(=O)c1ccccc1	58*	.	.	-7	90	6

Overlap with the part before: two compounds, then new ones.
no.	canonical_smiles	EWS-Fli inh	PglD DTNB	Yeast UUG start	LGR2 antag	miR122 inh	CFTR F508del cor
11	FC(F)Oc1ccc(NC(=S)NC2CCSc3ccccc32)cc1 (configuration not stated)	.	-8	-15	4	.	-1
12	CCOc1ccc(S(=O)(=O)NCc2ccccn2)cc1NC(=O)c1ccccc1	58*	.	.	-7	90	6
13	COc1ccc(S(=O)(=O)NCc2ccccn2)cc1NC(=O)c1ccccc1F	46	2	-11	-2	49	8.6*
14	O=c1c2c(nc3nc(SCc4ccccc4)[nH]n13)CCC2	.	-8	29	.	112*	.
15	O=c1c2c(nc3nc(COc4ccccc4)[nH]n13)CCC2	.	-2	-18	.	-1	.
16	COc1ccc2c3c(n(C)c2c1)[C@@H](CO)N(Cc1cccc(Cl)c1)CC31CCN(C(C)=O)CC1	19	.	.	8	.	0
17	Cc1ccc(-n2sc3ccccc3c2=O)cc1S(=O)(=O)N1CCCCC1	21	22*	10	.	0	-3
18	O=c1c2ccccc2sn1-c1cccc(Cl)c1	3	0	-5	1	-4	-3
19	O=c1c2ccccc2sn1-c1ccccc1	.	4	195*	.	4	.
20	CCOC(=O)c1c(NC(=O)CSc2nc3c(c(=O)n(C)c(=O)n3C)n2CC)sc(C)c1C	.	1	-18	-28	-3	.
21	COc1ccc(CCNC(=O)c2cc3cccc(OC)c3oc2=O)cc1OC	-20	3	-19	-15	-5	.
22	COc1cccc2cc(C(=O)NCCN3CCOCC3)c(=O)oc12	-15	-1	-28	0	-4	9.6*
23	CCc1c(C)sc2nc(SCC(=O)Nc3cc(C)on3)n(CCOC)c(=O)c12	.	-4	-20	.	0	.
24	Cn1cc([N+](=O)[O-])c(C(=O)Nc2cc(Oc3ccccc3)cc([N+](=O)[O-])c2)n1	54*	.	.	8	.	-4
25	COc1ccccc1-c1ccccc1[C@H]1[C@@H](CO)N(C(=O)C2CC2)[C@H]1C#N	-6	.	.	-16	.	1
26	COc1cccc2c1C(CO)N1C(C#N)C3CC(C(=O)O)C(C1C2)N3C (configuration not stated)	24	-2	3	92*	-20	-9
27	COc1cc(OC)c(C2=NOC(C(=O)Nc3cc(C)nn3-c3ccccc3)C2)cc1Cl (configuration not stated)	.	-8	-6	19	-3	.
28	CCCCC(=O)NC(c1ccc(C(C)C)cc1)c1ccc2cccnc2c1O (configuration not stated)	43	-5	-5	27	.	-5
29	CC(=O)NC(c1ccc(C(C)C)cc1)c1ccc2cccnc2c1O (configuration not stated)	43	-1	-13	22	.	8.9*
30	O=C(NCc1ccccn1)c1ccc(CS(=O)(=O)Cc2ccc(Cl)cc2)o1	.	-11	-19	.	-1	.
31	Cc1ccc(C)c(S(=O)(=O)Nc2ccc(C(=O)NCCCN(C)C)cc2)c1	3	-3	-16	8	-28	0
32	CS(=O)(=O)Nc1ccccc1C(=O)NCCSc1ccc(Cl)cc1	10	-2	0	9	6	0
33	Cc1ccc(NS(=O)(=O)c2cc(C(=O)NCCSc3ccc(C)cc3)ccc2C)cc1	.	2	-11	.	115*	.
34	Cc1ccc(NC(=O)CNC(=O)c2cccs2)cc1S(=O)(=O)Nc1ccc(Cl)cc1	0	-1	2	3	98*	2
35	CC(=O)Nc1cc(S(=O)(=O)Nc2ccccc2)c(C)cc1C	.	7	-14	.	36	.
36	Cc1ccc(C(=O)NCCSc2ccc(Cl)cc2)cc1S(=O)(=O)Nc1ccccc1	11	2	-10	8	131*	-4

Entries of single compounds as entered above. Values in the order: EWS-Fli inh, PglD DTNB, Yeast UUG start, LGR2 antag, miR122 inh, CFTR F508del cor
COc1ccccc1-c1ccccc1[C@H]1[C@@H](CO)N(C(=O)C2CC2)[C@H]1C#N in the list: -6, ., ., -16, ., 1
Cc1ccc(NC(=O)CNC(=O)c2cccs2)cc1S(=O)(=O)Nc1ccc(Cl)cc1 in the list: 0, -1, 2, 3, 98*, 2

(next part)
no.	canonical_smiles	EWS-Fli inh	PglD DTNB	Yeast UUG start	LGR2 antag	miR122 inh	CFTR F508del cor
37	CC(=O)Nc1cc(S(=O)(=O)Nc2cccc(C)c2)c(C)cc1C	.	-5	-6	.	144*	.
38	Cc1ccnc(NC(=O)c2ccc([N+](=O)[O-])s2)c1	-31	-7	-15	-40	-6	2
39	CN1C(C(=O)Nc2ccccn2)=C(O)c2ccccc2S1(=O)=O	1	-3	-11	-4	-4	0
40	O=C(NCc1ccccc1)c1cc(C2CCCN(C(=O)c3ccc4c(c3)CCO4)C2)on1 (configuration not stated)	0	-4	4	14	-4	-2
41	Cc1ccc(C(=O)Nc2ccc(C)c(S(=O)(=O)Nc3ccccc3Cl)c2)s1	1	-5	-7	9	413*	2
42	Cc1ccc(SCCNC(=O)c2ccc(C)c(S(=O)(=O)Nc3cccc(C)c3)c2)cc1	.	-2	-9	11	105*	.
43	CS(=O)(=O)Nc1ccc(C(=O)NCCSC2CCCCC2)cc1	-13	.	.	.	-3	-2
44	Cc1ccc(NS(=O)(=O)c2cc(C(=O)NCCSC3CCCCC3)ccc2C)cc1	.	3	-5	.	122*	.
45	CCOc1ccc(C)cc1S(=O)(=O)n1cnc2ccccc21	59*	3	9	1	37	9.9*
46	C[C@@H]1CN([C@@H](C)CO)C(=O)c2cc(NC(=O)c3ccncc3)ccc2O[C@@H](C)CCCCO[C@H]1CN(C)C	-2	-1	17	-1	2[16.7 µM]	1
